Values of other authors in patent US8507011B2, “Method for suppressing or preventing fibrous adhesion formation using a multicomponent aqueous oxychlorine composition prepared on-site” (priority 2009, dated 2013).

Tested on: adhesion
Conditions: applied intra-abdominally

In the case of Tetrachlorodecaoxide, the “Antiadhesive properties (in words)” value is given as “displays antiadhesive properties”.

This is a selection: effects in other tests are not listed, and their absence says nothing.
